Molecular target: T1, AChE from Electrophorus electricus (Electrophorus electricus, UniProt O42275)
T1 construct: purchased Sigma-Aldrich (St. Louis, MO, USA)
Assay type: biochemical
Settings: Ellman's reagent, microplate, 37 °C, pH 7.5; read-out: half maximal inhibitory concentration (IC50) against AChE
Experimental: Microplate assays utilizing Ellman’s reagent were performed to quantitatively assess the inhibitory activity of the isolated compounds against AChE [67].
Ammonium thiocyanate, sodium thiosulfate pentahydrate, anhydrous sodium sulfate and iodine were purchased from Cicarelli Laboratorios (San Lorenzo, Santa Fe). AChE from Electrophorus electricus EC 3.1.1.7, Fast blue salt B (FBB), α-naphthol, α-naphthyl acetate (α-NAc), and CDCl3, were purchased from Sigma-Aldrich (St. Louis, MO, USA). Acetonitrile (LCMS grade) was acquired from Carlo Erba Reagents (Val de Reuil, France) and formic acid from Merck. Aluminium TLC sheets coated with Silica gel 60 F were purchased from Merck (Darmstadt, Germany). Agar was purchased from Britania (Bs. As., Argentina).
Inhibition percentage determinations were carried out using the method applied by Osella et al.. […] The plate was shaken for 2 s and the increase in absorbance at 405 nm was monitored at 37 °C for 15 min. […] IC50 calculated using Prism V5.01 (GraphPad Software Inc., La Jolla, CA, USA) applying a non linear regression curve fit for a log[inhibitor] vs. normalized answer model with variable slope.

Sequences of proteins named here, by UniProt entry; tags and fusion partners are left off. Residues count along the entry.
UniProt O42275, 24-633: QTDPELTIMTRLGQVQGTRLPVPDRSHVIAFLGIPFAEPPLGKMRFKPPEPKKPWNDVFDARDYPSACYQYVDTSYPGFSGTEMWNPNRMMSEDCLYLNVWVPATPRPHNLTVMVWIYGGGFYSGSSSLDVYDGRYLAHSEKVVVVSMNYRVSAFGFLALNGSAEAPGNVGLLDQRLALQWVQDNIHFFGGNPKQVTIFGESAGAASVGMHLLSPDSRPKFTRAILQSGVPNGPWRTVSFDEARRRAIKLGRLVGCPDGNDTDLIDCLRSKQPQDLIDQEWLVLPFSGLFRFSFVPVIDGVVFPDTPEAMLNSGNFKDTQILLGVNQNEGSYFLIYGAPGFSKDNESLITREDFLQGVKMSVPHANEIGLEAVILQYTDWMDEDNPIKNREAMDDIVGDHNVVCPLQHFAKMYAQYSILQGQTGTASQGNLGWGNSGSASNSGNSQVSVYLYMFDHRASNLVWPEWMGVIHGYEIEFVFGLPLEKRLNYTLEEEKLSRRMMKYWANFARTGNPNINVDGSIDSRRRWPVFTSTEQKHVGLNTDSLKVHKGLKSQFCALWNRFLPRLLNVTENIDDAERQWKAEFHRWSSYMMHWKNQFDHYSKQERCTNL

CNC(=O)Oc1ccc2c(c1)[C@]1(C)CCN(C)[C@@H]1N2C [eserine, reference compound] was tested, and the IC50 was 224 ± 17 nM.
